Source: US10449162B2, “Delivery of drug nanoparticles and methods of use thereof” (DFB Soria, LLC, priority 2015, dated 2019)

Assay: Solubility of the active in Franz cell receptor fluid
Type: physicochemical
Conditions: 96 wt % PBS pH 7.4 and 4 wt % hydroxyl propyl beta cyclodextrin

paclitaxel
Solubility of the active in the receptor fluid: ~0.4 µg/mL
